Patent US20250188110A1, “SPECIFIC SMALL MOLECULE INHIBITORS THAT BLOCK KMT9 METHYLTRANSFERASE ACTIVITY AND FUNCTION” (ALBERT-LUDWIGS-UNIVERSITÄT FREIBURG, priority 2021, published 2025)

By UniProt entry, the sequences of proteins in these tests, tags left out. Residues count along the entry.
UniProt Q9Y5N5, whole entry: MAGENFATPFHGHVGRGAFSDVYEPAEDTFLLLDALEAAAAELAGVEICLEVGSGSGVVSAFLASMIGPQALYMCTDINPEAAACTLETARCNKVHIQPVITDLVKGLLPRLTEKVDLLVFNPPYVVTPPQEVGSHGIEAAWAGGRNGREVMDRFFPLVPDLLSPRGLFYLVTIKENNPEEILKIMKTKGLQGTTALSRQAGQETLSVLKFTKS
UniProt Q9UI30, 1-120 isoform 2 partner: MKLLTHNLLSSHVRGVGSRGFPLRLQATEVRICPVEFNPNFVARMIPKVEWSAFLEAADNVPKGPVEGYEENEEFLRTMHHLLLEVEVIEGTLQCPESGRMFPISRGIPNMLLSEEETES

Legend:
[1] = molecular target: T1, KMT9 (Homo sapiens, UniProt Q9Y5N5); assay: Microscale thermophoresis (MST) KMT9 binding; conditions: read-out: MST (Kd); His-tag labelled KMT9 20 nM
Experimental: To determine the binding affinity of the compounds according to the present invention and KMT9, microscale thermophoresis (MST) analysis was performed with a NanoTemper Monolith NT.115 instrument (NanoTemper Technologies GmbH). KMT9 was labelled with a RED-Tris-NTA labelling kit (NanoTemper Technologies GmbH) based on the manufacturer's instructions. Buffer including 25 mM HEPES (pH 7.5), 100 mM NaCl, 1 mM DTT and 0.05% Tween was used for the reaction buffer. Varying concentrations of the tested compounds of formula (I) as indicated in Table 1 were titrated against His-tag labelled KMT9 proteins (20 nM). Samples were loaded into standard Capillaries (NanoTemper Technologies GmbH) and MST measurements were performed using 40% MST power and 100% LED power. For each set of binding experiments, MST measurement was carried out with Binding Affinity module in MO.Control program under Nano-RED Excitation. Datasets were processed with the MO.Affinity Analysis software (NanoTemper Technologies GmbH). […]

[2] = system: PC3M cells; assay: Inhibition of cell viability, MTT assay, PC3M; conditions: 7 days
Experimental: Inhibition of cell viability (“in vivo (MTT, PC3M cells)”)
MTT assays were performed with the CellTiter 96 Non-Radioactive Cell Proliferation Assay (MTT) kit (G4000, Promega) according to the manufacturer's instructions. Briefly, 100 μl of cell culture medium containing inhibitor were dispensed per well into 96-well tissue culture dishes and allowed to equilibrate for 30 min at room temperature. 100 μl of cell suspension were added per well (resulting in 300 cells per well). Cells were allowed to adhere for 30 min at room temperature and then incubated at 37° C. (5% CO2) in a CellXpert incubator (Eppendorf). After 4 days, the medium was replaced with 100 μl of fresh cell culture medium containing inhibitor followed by incubation for additional 3 days. At the end of the culture period, 15 μl of Dye Solution per well were added, the plate incubated for 4 hours at 37° C. followed by addition of 100 μl of Solubilization Solution/Stop Mix per well and incubation for 1 hour at 37° C. Finally, the content of the 96-well dish was homogenized by pipetting up and down and assayed at 570 nm and 650 nm using a NanoQuant Infinite M200 Pro plate reader (TECAN). Absorption at 650 nm (background) was substracted from absorption at 570 nm and the resulting values were normalized to those of the DMSO control. […]

[3] = molecular target: T1, KMT9; assay: KMT9 methyltransferase inhibition assay, MTaseGlo luminescence (from entry 155); conditions: read-out: Inhibition (IC50); MTaseGlo procedure (entries from 155); 100 nM KMT9, 5 μM ETF1, 1 μM SAM
Experimental: For the compounds from entry 155 on in Table 1, the following procedure was used to determine IC50 values: The assay was carried out in white, opaque 384-well OptiPlates (PerkinElmer). For IC50 determination, a 2.5x substrate mix (final assay concentrations: 5 μM ETF1, 1 μM SAM and 1x MTaseGlo Reagent), a 2.5x KMT9 solution (final assay concentration 100 nM) and a 5x inhibitor stock 1:1 dilution series (concentration according to the desired range; dilution series was prepared in assay buffer containing 10% DMSO to obtain a final DMSO concentration of 2% in the assay) were prepared. 2 μL of 5x inhibitor stock and 4 μL of 2.5x KMT9 were pipetted, the plate was spun down at 700 rpm for 1 min using a Hettich UNIVERSAL 320 centrifuge and incubated at room temperature (around 25° C.) for 15 min. The reaction was initiated by adding 4 μL of 2.5x substrate mix, the plate was spun down as described before and incubated at 30° C. for 2 h. Afterwards, 10 μL of 2× MTaseGlo Detection solution was added, the plate was centrifuged as described above and incubated for 60 min at room temperature. Luminescence was measured using a PerkinElmer EnVision 2102 Multilabel Reader. Calculation of inhibition and data fitting was carried out as for entries 1-154. described above. […]

[4] = molecular target: T1, KMT9; assay: KMT9 thermal shift assay (SyproOrange); conditions: 500 µM compound, 2 μM KMT9
Experimental: The assay was carried out in 96-well Hard-Shell PCR plates (Bio-Rad Laboratories Inc.). Assay buffer consisted of 50 mM BTP, 1 mM MgCl2 and 1 mM DTT at a pH of 8.5 (adjusted using 1 M HCl and 1 M NaOH). 20X inhibitor stock (in DMSO), 2X enzyme stock and 4X SyproOrange (SO) stock (both in assay buffer) were prepared. 1 μL of 20X compound, 4 μL of assay buffer, 10 μL of 2X KMT9 and 5 μL of 4X SO were pipetted. For the no-compound control, 20X inhibitor stock was replaced by DMSO. The final volume was 20 μL. The plate was spun down at 700 rpm for 1 min using a Hettich UNIVERSAL 320 centrifuge and incubated at 25° C., shaking at 600 rpm. After incubation, the plate was spun down for 1 min at 700 rpm and measurement was conducted using a CFX96 Touch Real-Time PCR Detection System (Bio-Rad Laboratories Inc.). The plate was equilibrated at 20° C. for 4 min and then heated stepwise at a rate of 1° C. per 15 s until 95° C. After every step, fluorescence was measured in FRET mode. Calculation of melting points was conducted by a Boltzman sigmoidal model using GraphPad Prism 7.0. […]

## Nc1nc(Cl)nc2c1c(-c1nc(Cc3ccccc3)cs1)cn2[C@@H]1C[C@H](C2CCN(CC3CCOC3)CC2)[C@@H](O)[C@H]1O (stereo partly shown)
[1]
  Kd: < 10 nM
[2]
  in vivo (MTT, PC3M Cells), cell viability effect: ### (an effect at less than or equal to 1 μM)
[3]
  IC50: 100 to 1000 nM
[4]
  Thermal shift (ΔTm): +++ (a ΔTm of greater than 15 K and less than or equal to 20 K (15 K<ΔTm≤20 K))
